Earlier results in patent publication US9974782B2, “Phosphodiesterase inhibitors and uses thereof” (THE TRUSTEES OF COLUMBIA UNIVERSITY IN THE CITY OF NEW YORK, priority 2008, dated 2018).

Experiments:
[1] = test system: PDE1-4; details: cited from earlier work
[2] = target: PDE5 (Homo sapiens, UniProt O76074); details: cited from earlier work; for IC50: read-out: IC50 against PDE5
[3] = test system: PDE1-6; details: cited from earlier work

Row | SMILES | selectivity versus PDE1-4 (PDE1-4/PDE5) [1] | IC50 [2] [nM] | selectivity versus PDE1-6 [3] | fold more potent than sildenafil [2] [fold]
1 | COC(=O)c1c(C(=O)N2CCN(CCO)CC2)cc2c(Cl)cccc2c1-c1cc(Br)c(OC)c(OC)c1 | > 16000 | 6.2 | – | –
2 | CCn1ncc2c(NCc3ccc(OC)c(Cl)c3)c(C(=O)NCc3ccncc3)cnc21 | – | < 0.8 | – | –
3 | CCc1cc(C#N)cc2c(NCc3ccc(OC)c(Cl)c3)c(CO)cnc12 | – | 0.05 | > 7800 | 30
4 | CCn1ncc2c3c(NCc4ccc(OC)c(Cl)c4)nnc(-n4cnc(C(=O)OC)c4)c3cnc21 | – | 0.3 | – | –
